## Measured affinities in a library of Ab-14 heavy chain variants

Source: Engelhart et al. 2022 (doi:10.1038/s41597-022-01779-4), MIT Lincoln Laboratory and A-Alpha Bio; data file from the FLAb repository.

The target is the same throughout: PDVDLGDISGINAS, from the HR2 region of SARS-CoV-2 spike.

Each scFv is VH, three GGGGS repeats, VL, as in the parent Ab-14, and differs from it in the CDRs of the heavy chain only.
VH: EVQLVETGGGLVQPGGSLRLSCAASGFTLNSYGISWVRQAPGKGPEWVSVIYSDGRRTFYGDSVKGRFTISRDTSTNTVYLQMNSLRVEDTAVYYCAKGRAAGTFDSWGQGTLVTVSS
VL: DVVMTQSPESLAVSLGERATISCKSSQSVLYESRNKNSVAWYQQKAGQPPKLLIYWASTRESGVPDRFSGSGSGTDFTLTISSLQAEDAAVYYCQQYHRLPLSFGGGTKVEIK

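Phage display of a naive human antibody library on the peptide gave the parent. Variants in AAYL49 differ from the parent at up to three CDR positions; double and triple changes were sampled at random. AlphaSeq pools MATa yeast showing the antibodies with MATalpha yeast showing the peptide. After mating in shaken culture at 30 °C for 16 h, diploids were selected and their barcode pairs sequenced. Scores were corrected for input abundance and mapped to Kd with protein pairs of known affinity run in the same pool. Each pool was mated in three replicate cultures.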

Each variant's VH is given in full.
Every variant below is changed at R57 of the VH (sequential numbering).
The read-out is the apparent dissociation constant on a log10 scale (nM): the lower, the stronger.
"ND" marks a missing value. The strain was present, yet no cells mated with the target were sequenced in that replicate, which points to weak or no binding.
For reference, the parent read 0.65 as the reference entry and 4.11 (one replicate of three) as a member of this library.
Three control strains display no target. For library AAYL49, 15% of the pairings with them gave a signal, with a median of 4.06 and one signal in twenty below 2.83, so weak values seen in few replicates may be background.

VH	log10 Kd (nM) by replicate
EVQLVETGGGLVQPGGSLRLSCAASGFTLNSYGISWVRQAPGKGPEWVSVIYSDGRPTFYGDSVKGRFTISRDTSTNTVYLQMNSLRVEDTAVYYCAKGRAAGTFDSWGQGTLVTVSS	ND / ND / ND
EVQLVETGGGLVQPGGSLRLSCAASGFTLNSYGISWVRQAPGKGPEWVSVIYSDGRSTFYGGSVKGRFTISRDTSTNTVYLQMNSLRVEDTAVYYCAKGRAAGTFDSWGQGTLVTVSS	ND / ND / ND
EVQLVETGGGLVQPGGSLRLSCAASGFTLNSYGISWVRQAPGKGPEWVSVIYSDGRMTFYGDSVKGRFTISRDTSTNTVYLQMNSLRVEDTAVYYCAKGRFAGTFDSWGQGTLVTVSS	ND / ND / ND
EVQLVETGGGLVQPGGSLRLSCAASGFTLSSYGISWVRQAPGKGPEWVSVIYSDGRWTFYGDSDKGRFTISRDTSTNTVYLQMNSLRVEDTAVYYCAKGRAAGTFDSWGQGTLVTVSS	2.12 / 2.04 / 2.13
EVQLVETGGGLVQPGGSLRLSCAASGFTLNHYGISWVRQAPGKGPEWVSVPYSDGRGTFYGDSVKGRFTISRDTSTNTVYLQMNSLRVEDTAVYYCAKGRAAGTFDSWGQGTLVTVSS	ND / 4.08 / ND
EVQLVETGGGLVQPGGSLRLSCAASGFTLNFYGISWVRQAPGKGPEWVSVIYSDGRIRFYGDSVKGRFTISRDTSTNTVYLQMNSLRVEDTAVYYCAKGRAAGTFDSWGQGTLVTVSS	4.85 / 3.12 / ND
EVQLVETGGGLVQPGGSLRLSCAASGFTLNSYGISWVRQAPGKGPEWVSVIYSDGRTTFYHDSVKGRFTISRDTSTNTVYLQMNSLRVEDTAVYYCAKGRAAGTFDSWGQGTLVTVSS	2.48 / 2.27 / 2.46
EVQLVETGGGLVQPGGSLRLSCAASGFTLNSYGISWVRQAPGKGPEWVSVGYSDGRCTFYGDSVKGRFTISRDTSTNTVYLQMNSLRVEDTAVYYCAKGRAAGTFDSWGQGTLVTVSS	ND / ND / ND
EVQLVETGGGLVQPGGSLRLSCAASGFTLNTYGISWVRQAPGKGPEWVSVIYSDGRCTFYGDSVKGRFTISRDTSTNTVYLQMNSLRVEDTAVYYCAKGRAAGTFDGWGQGTLVTVSS	5.63 / 3.89 / ND
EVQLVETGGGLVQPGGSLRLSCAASGFTLNSYGISWVRQAPGKGPEWVSVIQSDGRPTFYGMSVKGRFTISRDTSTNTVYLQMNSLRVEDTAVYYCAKGRAAGTFDSWGQGTLVTVSS	ND / ND / ND
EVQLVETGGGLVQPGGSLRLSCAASGFTLNSYGVSWVRQAPGKGPEWVSVIYSDGRATFYGDSVKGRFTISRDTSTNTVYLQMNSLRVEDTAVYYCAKGRAAGAFDSWGQGTLVTVSS	3.81 / 2.81 / 3.32
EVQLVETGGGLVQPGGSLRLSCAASGFTLNSYGISWVRQAPGKGPEWVSVIYSDGRYTFYGDSVKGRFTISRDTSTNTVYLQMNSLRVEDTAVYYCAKVRAAGTFDAWGQGTLVTVSS	4.58 / ND / ND
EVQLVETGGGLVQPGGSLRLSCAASGFTLNSYGISWVRQAPGKGPEWVSVIYSDGRATFHGDSVKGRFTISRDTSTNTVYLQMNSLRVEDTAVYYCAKGRAAGTFKSWGQGTLVTVSS	3.97 / ND / ND
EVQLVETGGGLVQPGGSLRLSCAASGFTLNSYGISWVRQAPGKGPEWVSVIYSDGRCTFPGDSVKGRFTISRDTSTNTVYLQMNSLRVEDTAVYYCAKGRAASTFDSWGQGTLVTVSS	ND / ND / ND
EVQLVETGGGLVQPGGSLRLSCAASGVTLNSYGISWVRQAPGKGPEWVSVIYSDGRWTFYGDSVKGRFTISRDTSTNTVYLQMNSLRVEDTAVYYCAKGRAAGTVDSWGQGTLVTVSS	4.07 / 5.55 / ND
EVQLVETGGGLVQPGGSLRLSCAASGFTLNSYGISWVRQAPGKGPEWVSVIYSDGRFTFIGDSVKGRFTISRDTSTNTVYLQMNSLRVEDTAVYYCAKGRAAGTMDSWGQGTLVTVSS	5.38 / 3.30 / 3.06
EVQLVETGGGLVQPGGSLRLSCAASGFTVNSYGISWVRQAPGKGPEWVSVIYSIGRFTFYGDSVKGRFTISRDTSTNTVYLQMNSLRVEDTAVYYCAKGRAAGTFDSWGQGTLVTVSS	ND / ND / ND
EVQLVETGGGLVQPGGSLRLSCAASGFTLNSYGISWVRQAPGKGPEWVSVIYSDGRGTFYGCSVKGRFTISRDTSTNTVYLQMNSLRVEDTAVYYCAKGRAAGPFDSWGQGTLVTVSS	ND / ND / ND
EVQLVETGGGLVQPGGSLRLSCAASGFTLNSYGISWVRQAPGKGPEWVSVPYSDGRTTFYGDSVKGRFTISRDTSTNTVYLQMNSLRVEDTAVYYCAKGDAAGTFDSWGQGTLVTVSS	5.57 / 4.15 / 4.51
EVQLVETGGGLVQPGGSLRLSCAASGFTLNSYGISWVRQAPGKGPEWVSVIYSDGRGTPYGDSVKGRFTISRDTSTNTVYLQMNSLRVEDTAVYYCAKGPAAGTFDSWGQGTLVTVSS	3.42 / ND / ND
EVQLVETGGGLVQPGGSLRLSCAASGFTLNSYGISWVRQAPGKGPEWVSVIYSDGRQAFYGDSRKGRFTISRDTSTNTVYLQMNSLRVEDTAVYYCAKGRAAGTFDSWGQGTLVTVSS	ND / ND / ND
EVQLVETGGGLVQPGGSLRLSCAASGFMLNSIGISWVRQAPGKGPEWVSVIYSDGRYTFYGDSVKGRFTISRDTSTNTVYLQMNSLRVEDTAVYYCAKGRAAGTFDSWGQGTLVTVSS	ND / ND / ND
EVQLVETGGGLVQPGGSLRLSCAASGFTLNSYGISWVRQAPGKGPEWVSVIYSDPRNTFYGDSVKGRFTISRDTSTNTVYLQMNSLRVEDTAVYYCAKGRAAGTFSSWGQGTLVTVSS	ND / ND / ND
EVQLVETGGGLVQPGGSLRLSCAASGFTLNSYGISWVRQAPGKGPEWVSVIYSDGTVTFYGDSVKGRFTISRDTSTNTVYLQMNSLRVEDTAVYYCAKGVAAGTFDSWGQGTLVTVSS	ND / ND / ND

Extract of 2 entries:

{"VH": "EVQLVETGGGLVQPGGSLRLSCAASGFTLNSYGISWVRQAPGKGPEWVSVIYSDGRFTFIGDSVKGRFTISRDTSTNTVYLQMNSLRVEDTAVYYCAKGRAAGTMDSWGQGTLVTVSS", "log10 Kd (nM) by replicate": "5.38 / 3.30 / 3.06"}
{"VH": "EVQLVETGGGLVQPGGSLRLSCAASGFTLNTYGISWVRQAPGKGPEWVSVIYSDGRCTFYGDSVKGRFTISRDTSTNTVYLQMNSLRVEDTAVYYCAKGRAAGTFDGWGQGTLVTVSS", "log10 Kd (nM) by replicate": "5.63 / 3.89 / ND"}